These are literature values, as cited in patent US5776946A, “Peripheral benzodiazepine receptor ligands as antiinflammatory agents” (priority 1995, dated 1998).

By UniProt entry, the sequences of proteins in these tests, tags left out.
UniProt P30536, whole entry: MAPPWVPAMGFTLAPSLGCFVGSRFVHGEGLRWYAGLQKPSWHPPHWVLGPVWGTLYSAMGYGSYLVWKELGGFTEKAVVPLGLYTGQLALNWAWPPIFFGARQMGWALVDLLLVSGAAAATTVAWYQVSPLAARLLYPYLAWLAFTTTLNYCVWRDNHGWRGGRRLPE

pKd, pKi: −log10 of the molar value.

The target in data set [1] is T1, peripheral benzodiazepine receptors, human brain tissue (Homo sapiens, UniProt P30536).
T1 construct: host or cells: human brain tissue (Doble et al., 1987)
The conditions noted are these: read-out: equilibrium dissociation constant, or affinity (Kd); cited from earlier work.

Data set [2] has as its target T2, peripheral benzodiazepine receptors in brain (Homo sapiens, UniProt P30536).
T2 construct: In brain, this has been determined to be 3.5 nM for PK 11195 itself; host or cells: brain (Doble et al., 1987)
The following applies: read-out: ability to displace bound PK 11195 from peripheral benzodiazepine receptors (Ki); cited from earlier work.

With `CCC(C)N(C)C(=O)c1cc2ccccc2c(-c2ccccc2Cl)n1` (centres unmarked) [PK 11195, 1-(2-chlorophenyl)-N-methyl-N-(1-methylpropyl)-3-isoquinolinecarboxamide], the negative-log Kd (pKd) (commonly the Kd on a negative log10 scale, so that one unit is a factor of ten) in data set [1] was 8.37. The pKi (commonly the negative decadic logarithm of the Ki, by convention in mol/L) in data set [2] was 8.46.
